# Binding of CDR-mutated scFvs to a peptide of the spike HR2 region

Reference: Engelhart et al. 2022, doi:10.1038/s41597-022-01779-4. File: FLAb, binding data.

The target is the same throughout: PDVDLGDISGINAS, from the HR2 region of SARS-CoV-2 spike.

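The starting antibody came from a phage panning campaign against this peptide. Library AAYL50 holds single substitutions and randomly drawn double and triple substitutions in the CDRs. In AlphaSeq, yeast of one mating type display the scFv and yeast of the other type display the target. Binding brings cells together so that they mate, and sequencing counts the barcode pairs among the diploids. Each replicate has its own calibration line, from reference interactions of the BCL2 family. Each pool was mated in three replicate cultures.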

Parent scFv Ab-14: VH joined to VL by a 15-residue (Gly4Ser)3 linker. Changes lie in the light chain CDRs alone.
VH: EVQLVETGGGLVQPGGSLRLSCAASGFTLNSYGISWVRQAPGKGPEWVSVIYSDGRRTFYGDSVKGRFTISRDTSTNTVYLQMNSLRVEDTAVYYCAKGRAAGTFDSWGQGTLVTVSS
VL: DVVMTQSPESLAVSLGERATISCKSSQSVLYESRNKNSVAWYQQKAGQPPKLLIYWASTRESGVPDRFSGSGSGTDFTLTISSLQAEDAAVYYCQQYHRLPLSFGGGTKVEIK

The parent's light chain CDRs are KSSQSVLYESRNKNSVA, WASTRES, QQYHRLPLS; each variant's own CDRs replace them letter for letter. All variants listed here change S33 of the VL, counted from its first residue. The Kd shown is the geometric mean over detected replicates; a lower Kd is a better binder. Where no diploid with the target was found in any replicate, the entry reads "nd": below detection, most likely a poor binder, though not proof of it. Empty control strains, which show no peptide, gave a signal in 18% of pairings with library AAYL50; the median was 15 µM and 95% of these signals were weaker than 970 nM. No background was subtracted. Also given: how often the same scFv was detected with the empty control strains.

For KSSQVVLYEERNKNSVA | WASTRES | QQYHRIPLS, the assay gave 17 nM (3 of 3 replicates; controls 3 of 9). The variant VSSQSVLYEVRNKNSVA | WASTREF | QQYHRLPLS gave nd (0 of 3 replicates; controls 0 of 9). The variant KSSQSVLYETRNKNSVA | WASTRES | QQKHCLPLS showed 20 nM (3 of 3 replicates; controls 2 of 9). With KSSQSVLYEETNKNSVA | WASTRES | QMYHRLPLS the result was 11 nM (3 of 3 replicates; controls 3 of 9). The variant LSSQSVLYELRNKNSVQ | WASTRES | QQYHRLPLS showed nd (0 of 3 replicates; controls 1 of 9).

The variant KSSQSVLYEIRNKNSVA | WASTRES | QQYHRAPLC gave 120 µM (2 of 3 replicates; controls 3 of 9). For KSSQKVLYEVRNKNSVA | WASTRES | QVYHRLPLS, the assay gave 390 µM (2 of 3 replicates; controls 3 of 9). For KSSQSVLYEHRNKNFVA | WASTIES | QQYHRLPLS, the assay gave 730 µM (1 of 3 replicates; controls 1 of 9). With KSSQSVLYEHRNKNSVA | WASTRES | QQYHRSPFS the result was 5.4 µM (1 of 3 replicates; controls 3 of 9). With KSSQDVLYEWRNKNSVA | WASTRES | QQWHRLPLS the result was 99 µM (2 of 3 replicates; controls 1 of 9).

For KSSQSVLYEPRNKNTVA | WASTRES | QQYHRLALS, the assay gave nd (0 of 3 replicates; controls 0 of 9). The variant KSSQSYLYEDRNKNVVA | WASTRES | QQYHRLPLS gave nd (0 of 3 replicates; controls 0 of 9). The variant KSSQSVLYEMRNKNSVA | WASTREP | QQEHRLPLS showed 380 nM (3 of 3 replicates; controls 1 of 9). With KSSQSVLYEKRNKNSVA | VASTRES | QQYHRLPLS the result was 69 µM (2 of 3 replicates; controls 1 of 9). For KSSQYVPYEDRNKNSVA | WASTRES | QQYHRLPLS, the assay gave 3.8 nM (3 of 3 replicates; controls 4 of 9).

The variant KSSQDVLYECRNKVSVA | WASTRES | QQYHRLPLS showed nd (0 of 3 replicates; controls 0 of 9). With KSLQSVLYEPRNKNSYA | WASTRES | QQYHRLPLS the result was 30 µM (1 of 3 replicates; controls 0 of 9). With KSSQSVLYEKRNKNSVA | WYSTRES | QQYHRLPLS the result was nd (0 of 3 replicates; controls 0 of 9). With KSSQSVLYEFRNKNSVA | WASTRES | QQYQRLPLS the result was 100 nM (3 of 3 replicates; controls 1 of 9). With KSSQSVLYEQRNKNSWA | WAATRES | QQYHRLPLS the result was nd (0 of 3 replicates; controls 2 of 9).

The variant NSSKSVLYEWRNKNSVA | WASTRES | QQYHRLPLS gave 170 nM (3 of 3 replicates; controls 1 of 9). With KGSQSVLYEERNKNSVA | WASTRQS | QQYHRLPLS the result was 11 nM (3 of 3 replicates; controls 2 of 9). The variant KSSQSHLYEGRNKNSVA | WASQRES | QQYHRLPLS showed 5.9 nM (3 of 3 replicates; controls 1 of 9). With KSSQFVLREKRNKNSVA | WASTRES | QQYHRLPLS the result was 11 µM (1 of 3 replicates; controls 2 of 9). For KSSQSVLYETRNKNSVA | WASTREP | QQYHRLPLS, the assay gave 7.8 nM (3 of 3 replicates; controls 3 of 9).

The variant KSSQSVLYEFRNKNSVA | WQSTRES | QQYERLPLS showed nd (0 of 3 replicates; controls 1 of 9). The variant KSSNSVLYEARNKNSVA | WASTRES | QQEHRLPLS showed 15 nM (3 of 3 replicates; controls 0 of 9). The variant KSSQSVLYEGRNKNSVV | WASTRES | QQYHRTPLS gave nd (0 of 3 replicates; controls 0 of 9). The variant KSSQSVLYEDRNKNSVA | WASTRES | QWYHRLPLS gave 7.0 nM (3 of 3 replicates; controls 3 of 9). The variant KYSQSVLYERRNKNLVA | WASTRES | QQYHRLPLS showed 490 nM (2 of 3 replicates; controls 1 of 9).

For KSSQSVLYERRNKNSVA | WAHTRES | QQYHRLPLS, the assay gave 1.1 µM (2 of 3 replicates; controls 2 of 9). The variant KSSQSVVYEWRNKNSVA | WASTRES | QQYHRLPLS gave 380 nM (3 of 3 replicates; controls 0 of 9). The variant KSSFSVLYERRNKNSVI | WASTRES | QQYHRLPLS gave nd (0 of 3 replicates; controls 3 of 9). The variant KSSQSVLYECRNKNSVD | WASTRES | QQYHRLPLE showed nd (0 of 3 replicates; controls 0 of 9). The variant KSSQSVLYEDRNKNSVA | WASTREP | QQYHRRPLS showed 110 nM (2 of 3 replicates; controls 1 of 9).

With KSSQSVLYEWRNKNSVA | WTSTRES | QQYHRLPLS the result was 200 nM (3 of 3 replicates; controls 0 of 9). The variant KSSQSVLYENRNKNSVA | WASPRES | QQYHYLPLS showed nd (0 of 3 replicates; controls 0 of 9). With KSSQSVLYECRNKNSVA | WASTRES | QQYHRLPLS the result was nd (0 of 3 replicates; controls 0 of 9). For KSSQSVLYEQRNKNYVA | WASTREE | QQYHRLPLS, the assay gave 560 nM (3 of 3 replicates; controls 1 of 9).

Extract of 2 entries:

CDR-L1,CDR-L2,CDR-L3,apparent Kd,replicates with signal,control signals
KSSQSVVYEWRNKNSVA,WASTRES,QQYHRLPLS,380 nM,3/3,0/9
KSSQDVLYEWRNKNSVA,WASTRES,QQWHRLPLS,99 µM,2/3,1/9